Assays:
T116 cells = assay type: cell-based, Chinese hamster; settings: 1 hour drug exposure
[1] = tested on: SKOV3 human ovarian carcinoma cells infected with adenovirus expressing E. coli nitroreductase (NR+); experiment: Cytotoxicity in SKOV3 cells infected with adenovirus expressing E. coli nitroreductase (NR+), MTT; assay type: cell-based

NC(=O)c1cc(N2CC2)c([N+](=O)[O-])cc1[N+](=O)[O-] [CB1954, 5-(aziridin-1-yl)-2,4-dinitrobenzamide, reference compound]
Ratio of IC50 values (F179/T116) (T116 cells): >327
Ratio of IC50 values (NR−/NR+) ([1]; SKOV3, 18 hour drug exposure): 150
Selective toxicity in infected versus uninfected SKOV3 cells ([1]; adenovirus NR 100 pfu/cell): 150 fold

Reference: patent publication US20040214798A1 (priority 2003, published 2004)
